Results from patent publication US20260241028A1, “METAL-BASED ANTIBODY-DRUG CONJUGATES AND METHODS OF MAKING AND USING THEREOF” (Laboratory for Synthetic Chemistry and Chemical Biology …, priority 2024, published 2026).

Legend:
HCT116 = assay: In vitro anti-proliferative activity (NBB assay), HCT116; type: cell-based
Procedure: (§1) Cells (4×10^3 cells/well) were seeded in a microtiter plate (96 wells) and incubated overnight before the treatment. […] After the media was removed, the cells were fixed with formaldehyde (3%; 50 μL) in PBS and stained with NBB reagent (0.05%, 0.1 M sodium acetate, 9% acetic acid; 50 μL) for overnight. The stained cells in each well were washed thrice gently with deionized water and solubilized in sodium hydroxide solution (50 mM; 100 μL). The cell viability was determined by measuring the absorbance of 620 nm in each well by microplate reader. The experiments were repeated in triplicate.
(§2) The methods are described as above (see Example 1), except using Cetuximab and the corresponding ADC-Au.

HT29 = assay: In vitro anti-proliferative activity (NBB assay), HT29; type: cell-based
Procedure: as §1, §2

HT29 tumor = assay: In vivo antitumor activity, HT29 tumor-bearing mice; conditions: Cetuximab 15 mg/kg
Procedure: (§3) All animal experiments are conducted under the guidelines approved by the Committee on the Use of Live Animals in Teaching and Research of the University of Hong Kong. Female BALB/cAnN-nu (nude) mice (5-8 weeks old) are housed in the Laboratory Animal Unit, The University of Hong Kong. The mice are freely access to food and water. HT29 colorectal cancer cells (5× 10^6) in PBS (100 μL) are injected into the right flanks of each mouse subcutaneously. […] The mice are treated with intravenous administration of a total of four doses on day 0, 3, 6 and 9. The tumor size and body weight are monitored during the treatment. After 12 days, the mice are sacrificed.

MDA-MB-231 = assay: In vitro anti-proliferative activity (NBB assay), MDA-MB-231; type: cell-based
Procedure: as §1

NCI-N87 = assay: In vitro anti-proliferative activity (NBB assay), NCI-N87; type: cell-based; conditions: HER2-overexpressed
Procedure: as §1

[1] = tested on: HER2-negative MDB-MB-231 cells; assay: Flow cytometry cellular binding and uptake, HER2-negative cells; type: cell-based
Procedure: Cells (2×10^5 cells/tube) were suspended in FACS staining buffer (2% FBS in PBS) into a 1.5 mL eppendorf tube. They were incubated with Sacituzumab, ADC-Au or IgG control respectively in staining buffer (100 μL) at 4° C. After 1 h, the cell suspensions were centrifuged at 1500 rpm for 3 min at 4° C. and washed with staining buffer (1 mL) twice to discard unbound antibodies. The cells were then incubated with Alexa Fluor 594 goat anti-human secondary antibody at 4° C. for 1 h and then subject to centrifugation. The cells were washed twice again and were resuspended in staining buffer. The mean fluorescence intensities (MFI) were measured using Beckman Cytoflex S Flow Cytometer.

pAkt (Ser473) = assay: Western blot of pAkt and Akt in NCI-N87 cells; type: cell-based; conditions: treatment for 24 hours
[2] = tested on: NCI-N87 gastric cancer xenograft; assay: In vivo anti-tumor effect, NCI-N87 gastric cancer xenograft; design: species or system mice; conditions: Trastuzumab 10 mg/kg
Procedure: as §3, with “NCI-N87 gastric” for “HT29 colorectal”, “(4×10^6)” for “(5× 10^6)”, “1, 5, 8” for “0, 3, 6”, “12.” for “9.”, “18” for “12”

[3] = Table 3, Example 2 (Cetuximab ADC), 72 h

Row | Substance | IC50 (HCT116; [3]) [µM] | cell growth inhibition HCT116 (HCT116; even up to 4 μM) | IC50 (HT29; [3]) [µM] | cell growth inhibition HT29 (HT29; even up to 4 μM) | antitumor effect (HT29 tumor) | cell growth inhibition MDA-MB-231 (MDA-MB-231; HER2-negative) | IC50 (MDA-MB-231; Table 4, Example 3 (Trastuzumab ADC), 72 h) [µM] | cell growth inhibition NCI-N87 (NCI-N87) | uptake to MDB-MB-231 cells [1] | intracellular pAkt (Ser473) (pAkt (Ser473)) | total Akt levels (pAkt (Ser473)) | tumor growth [2]
1 | Cetuximab: EGFR-targeted monoclonal antibody (MCE) | > 4 | not obvious | > 4 | not obvious | moderate antitumor effect | – | – | – | – | – | – | –
2 | Trastuzumab: HER2-targeted monoclonal antibody (MCE) | – | – | – | – | – | but not | > 4 | showed cell growth inhibition | but not | downregulation | not affected | obvious tumor growth inhibition
